# Laboratory results as given in patent publication US20150309012A1 (BAXTER INTERNATIONAL, published 2015).
# B1: anti-oxMIF antibody RAM9 (antibody, human IgG1, kappa, V domains shown)
# VH: EVQLLESGGGLVQPGGSLRLSCAASGFTFSIYSMNWVRQAPGKGLEWVSSIGSSGGTTYYADSVKGRFTISRDNSKNTLYLQMNSLRAEDTAVYYCAGSQWLYGMDVWGQGTTVTVSS
# VL: DIQMTQSPSSLSASVGDRVTITCRSSQRIMTYLNWYQQKPGKAPKLLIFVASHSQSGVPSRFRGSGSETDFTLTISGLQPEDSATYYCQQSFWTPLTFGGGTKVEIKR
# What was measured:
# [1] = molecular target: oxMIF on the cell surface of U937 human monocytic cells (human, UniProt P14174 2-115, oxidised isoform (oxMIF); residues not stated); assay: cell-based or functional assay
# [2] = molecular target: oxMIF on the cell surface of NR8383 rat macrophages (rat, UniProt P30904 2-115, oxidised isoform (oxMIF); residues not stated); assay: cell-based or functional assay
binder,measurement,setting,value
B1,"IC 50 of migration inhibition of U937 cells, antibody in the inserts (upper chamber), plate 1",[1],1.2 nM
same,"IC50 (inhibition of cell migration, chemokinesis assay, MI against log RAM9)",[2],12 nM
